# Apparent affinities of Ab-14 variants for a coronavirus HR2 peptide

Reference: Engelhart et al. 2022, doi:10.1038/s41597-022-01779-4. File: FLAb, binding data.

Antigen: PDVDLGDISGINAS, a 14-residue peptide of the SARS-CoV-2 spike HR2 region.

Parent: Ab-14, a human scFv built as VH, three GGGGS repeats, VL. Only the CDRs of the light chain vary.
VH: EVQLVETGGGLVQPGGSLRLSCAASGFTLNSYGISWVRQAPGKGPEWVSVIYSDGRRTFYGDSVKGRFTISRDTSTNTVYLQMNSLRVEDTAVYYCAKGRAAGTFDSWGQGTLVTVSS
VL: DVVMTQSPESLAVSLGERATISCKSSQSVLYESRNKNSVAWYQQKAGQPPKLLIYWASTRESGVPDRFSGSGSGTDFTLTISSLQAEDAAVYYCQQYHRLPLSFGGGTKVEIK

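Phage display of a naive human antibody library on the peptide gave the parent. Variants in AAYL50 differ from the parent at up to three CDR positions; double and triple changes were sampled at random. The assay is AlphaSeq: two haploid yeast populations carry antibody and antigen on their surface. Mating (16 h, 30 °C) was followed by selection of diploids and sequencing of their barcodes. A regression on co-assayed BCL2-family reference pairs converts the normalised counts of each replicate to an apparent Kd. The assay was run in three technical replicates.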

Each variant is given by its three light chain CDRs, as the data file delimits them; those of the parent are KSSQSVLYESRNKNSVA, WASTRES, QQYHRLPLS.
Values are log10 of the apparent Kd in nM; lower means stronger binding.
A mean of the replicates is given; it leaves out those without a signal.
"no signal" marks a missing value. The strain was present, yet no cells mated with the target were sequenced in any replicate, which points to weak or no binding.
Entries are sorted by rising average, undetected variants last.
Parent in this assay: reference entry 0.65, copy in this library 1.68.

| CDR-L1 | CDR-L2 | CDR-L3 | mean, log10 nM | detected | empty controls |
|---|---|---|---|---|---|
| ASSQLVLPESRNKNSVA | WASTRES | QQYHRLPLS | 0.05 | 3/3 | 0/9 |
| KSSQSSLWESRNKNSVA | WASERES | QQYHRLPLS | 0.59 | 3/3 | 1/9 |
| KSSQSVLNQSDNKNSVA | WASTRES | QQYHRLPLS | 0.72 | 3/3 | 5/9 |
| KSSWSVLYESRNQNSVA | WASTRES | QQYHRLPLS | 0.74 | 3/3 | 5/9 |
| KSSQSVLGISRNKNSVA | WASTRES | QQNHRLPLS | 0.82 | 3/3 | 0/9 |
| KSSQSHLYEPLNKNSVA | WASTRES | QQYHRLPLS | 0.82 | 3/3 | 3/9 |
| KSSQSVLYESRNQKSVA | WASTRES | QQYHRNPLS | 0.86 | 3/3 | 1/9 |
| KSSQWVLQESRNKNSVA | WASTRES | QQYHRLPLS | 0.88 | 3/3 | 1/9 |
| KSDQSVEYESRNKNSVA | WASTRPS | QQYHRLPLS | 1.13 | 3/3 | 1/9 |
| KSSQSVLYESRNKNSVA | WASTREE | QEYHRLPLS | 1.33 | 3/3 | 0/9 |
| KSSQSVLYFSTNKNSVA | RASTRES | QQYHRLPLS | 1.57 | 3/3 | 0/9 |
| KSVQSVLYESRNDNSVA | WTSTRES | QQYHRLPLS | 1.59 | 3/3 | 1/9 |
| KASQSVMYESRNKNSVA | WASTRES | QQYRRLPLS | 1.64 | 3/3 | 6/9 |
| KSKQSVLYESRNKNSVA | WASTRES | EQYHRLPWS | 1.72 | 2/3 | 0/9 |
| KASQSVLYESRNANSVA | WASTRES | QCYHRLPLS | 1.75 | 3/3 | 3/9 |
| KSSQSVLYESRNKWSVA | WASTPES | QQYHHLPLS | 1.75 | 3/3 | 1/9 |
| KSSQSVLYESRNKHSVA | WASTRMS | QQRHRLPLS | 1.83 | 3/3 | 1/9 |
| KSSQSVLYESRNKNSTA | WASTVES | QQYHRLPLG | 1.93 | 3/3 | 1/9 |
| KSSQSVLYESRNENFVA | WASTRES | QSYHRLPLS | 1.97 | 3/3 | 2/9 |
| KSSQSVLYESRNKNSVA | WAETRES | QQYHRLPLN | 1.99 | 3/3 | 0/9 |
| KSSQSVLYVSRGKNSVA | WASTRES | QQYHRWPLS | 2.16 | 2/3 | 1/9 |
| KSSQSLLYESDNKNSVA | KASTRES | QQYHRLPLS | 2.19 | 3/3 | 0/9 |
| KSSQSNLYRSRNKNSVA | WASTRES | QQYHRLPLS | 2.34 | 3/3 | 2/9 |
| KSSQSVLYESRNKKSVA | WASFRES | QQYHSLPLS | 2.37 | 3/3 | 4/9 |
| KSSQSVLYESRNVNSVA | HASTMES | QQYHRLPLS | 2.43 | 3/3 | 0/9 |
| KSSQSVLTESRNKNSVA | WAEYRES | QQYHRLPLS | 2.91 | 3/3 | 0/9 |
| KSSQSVLYESRNKNSVA | WASKTEW | QQYHRLPLS | 2.95 | 1/3 | 0/9 |
| KSSQSVLYESRNKNSVA | WASTMES | MQYHWLPLS | 3.39 | 2/3 | 2/9 |
| KSSQSVLIESRNKNSVA | WAYTRLS | QQYHRLPLS | 3.47 | 3/3 | 0/9 |
| KSSQSVLYESRNKESVA | WASKRES | QQCHRLPLS | 3.75 | 1/3 | 0/9 |
| VSSQSVLYESRNKNAVA | WASTRES | QQYHRYPLS | 3.77 | 1/3 | 0/9 |
| KSSQSVLYESRNKNVVA | WPSPRES | QQYHRLPLS | 3.96 | 2/3 | 2/9 |
| KSSQSVLYESRNKNSVA | PASIRES | QQYHRLPCS | 4.22 | 3/3 | 7/9 |
| KSSQSVLYESRIKNSVV | WASTRES | QQYHRLVLS | 4.41 | 2/3 | 1/9 |
| KSSQSVLYNSRNKNHGA | WASTRES | QQYHRLPLS | 4.44 | 2/3 | 5/9 |
| KSSQSYLYESRNKNSVA | WASTRES | QQYHRLPQQ | 4.53 | 1/3 | 3/9 |
| KSSQSVLYESRNKNSVA | WASTGES | QLYHRLPLS | 4.64 | 1/3 | 1/9 |
| KNSQSVLYESRNKNSVH | WASTRCS | QQYHRLPLS | 4.81 | 2/3 | 3/9 |
| TSSQHVLYESRNKNSVA | WASTRES | QSYHRLPLS | 4.83 | 1/3 | 3/9 |
| KSSQSVLYETRNKNSVA | WASTRES | QQQHRLPLS | 4.88 | 1/3 | 2/9 |
| KSSQSVLYESRNKNRVA | PASTRES | QQYTRLPLS | 4.89 | 2/3 | 8/9 |
| KSSQSVLYESRNKNPQA | WASTRES | QQYHRLQLS | 5.22 | 1/3 | 0/9 |
| KSSQSVLYESRNKNAVA | WTSTRES | QQYHRLPLY | no signal | 0/3 | 0/9 |
| KSSQWVWYESRNKNSTA | WASTRES | QQYHRLPLS | no signal | 0/3 | 1/9 |
| KSSQSVLGESRSKNSVA | WASTRES | NQYHRLPLS | no signal | 0/3 | 2/9 |
| KSSQSVLWESRNKNSVQ | WASTPES | QQYHRLPLS | no signal | 0/3 | 2/9 |
| KSSQSVLYSSRNKNSVA | WASTYCS | QQYHRLPLS | no signal | 0/3 | 1/9 |
| KSSQSVLYESRNKNAVA | WASTREN | QQPHRLPLS | no signal | 0/3 | 1/9 |
| KSSQSVLYESRNQNSVA | WASTRRS | QQQHRLPLS | no signal | 0/3 | 3/9 |
| KSSQQVLYESRNKNSVA | WASTRES | QQYHMLPLY | no signal | 0/3 | 2/9 |
| KSSQSVLYESRNKNSVA | WCSTRGS | VQYHRLPLS | no signal | 0/3 | 0/9 |
| KSSQSVQYESRNKNSWP | WASTRES | QQYHRLPLS | no signal | 0/3 | 1/9 |
| KSSQSVLYEQRNKNSVA | WASTREY | QQSHRLPLS | no signal | 0/3 | 1/9 |

As a blank, each scFv also met three strains without target: over library AAYL50, 18% of these pairings were detected, typically at 4.19 and seldom below 2.99. Also given: how often the same scFv was detected with the empty control strains.